Molecules are shown by their SMILES.

The chains behind the UniProt entries cited, without tags or fusion partners.
UniProt P31424, whole entry, looked up: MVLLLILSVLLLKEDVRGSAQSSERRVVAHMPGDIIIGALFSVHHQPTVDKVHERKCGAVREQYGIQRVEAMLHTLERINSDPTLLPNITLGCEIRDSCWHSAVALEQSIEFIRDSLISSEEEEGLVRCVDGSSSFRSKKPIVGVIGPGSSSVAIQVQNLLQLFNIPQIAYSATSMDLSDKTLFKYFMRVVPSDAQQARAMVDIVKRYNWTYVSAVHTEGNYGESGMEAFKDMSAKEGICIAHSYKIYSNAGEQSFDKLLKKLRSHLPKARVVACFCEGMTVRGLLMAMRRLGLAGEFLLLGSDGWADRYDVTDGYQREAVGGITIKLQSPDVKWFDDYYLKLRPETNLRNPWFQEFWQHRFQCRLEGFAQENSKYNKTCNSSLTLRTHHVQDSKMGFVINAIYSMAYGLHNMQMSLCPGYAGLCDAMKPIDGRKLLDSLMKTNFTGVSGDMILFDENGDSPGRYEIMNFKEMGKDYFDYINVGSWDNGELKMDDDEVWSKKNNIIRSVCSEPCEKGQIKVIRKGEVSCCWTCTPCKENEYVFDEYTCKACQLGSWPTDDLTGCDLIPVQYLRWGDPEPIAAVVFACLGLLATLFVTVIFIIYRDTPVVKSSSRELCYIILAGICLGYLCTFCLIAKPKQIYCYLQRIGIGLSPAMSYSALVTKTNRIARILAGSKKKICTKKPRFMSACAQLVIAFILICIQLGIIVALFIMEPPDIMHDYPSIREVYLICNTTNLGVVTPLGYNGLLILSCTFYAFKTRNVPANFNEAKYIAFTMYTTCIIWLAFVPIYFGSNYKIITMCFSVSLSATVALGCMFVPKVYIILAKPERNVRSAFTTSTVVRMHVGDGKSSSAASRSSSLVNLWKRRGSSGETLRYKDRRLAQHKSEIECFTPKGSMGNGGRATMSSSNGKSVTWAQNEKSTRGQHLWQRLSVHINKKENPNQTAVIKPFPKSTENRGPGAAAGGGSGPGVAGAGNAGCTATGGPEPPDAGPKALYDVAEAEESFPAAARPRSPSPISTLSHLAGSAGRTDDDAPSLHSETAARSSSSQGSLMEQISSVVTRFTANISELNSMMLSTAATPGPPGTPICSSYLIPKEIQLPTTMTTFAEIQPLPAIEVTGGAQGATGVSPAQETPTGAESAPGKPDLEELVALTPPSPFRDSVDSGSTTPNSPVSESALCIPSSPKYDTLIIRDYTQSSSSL

The target of this assay is Metabotropic glutamate receptor 5 (Rattus norvegicus) (UniProt P31424). Put plainly: Negative allosteric modulation of rat mGlu5 receptor expressed in HEK293A cells assessed as inhibition of glutamate-induced calcium mobilization at 30 uM preincubated for 140 seconds prior to glutamate-stimulation measured after 60 seconds relative to glutamate. As to conditions: HEK293-A. Format: functional, cell-based.
As to `Cc1csc(NC(=O)c2cccc(Oc3cccnc3)c2)n1`, the %max was 1.7%. Take `O=C(Nc1ccc(F)c(C(F)F)n1)c1cc(Cl)cc(Oc2cncnc2)c1`: the %max was determined as 1.6%. For `O=C(Nc1ccccn1)c1cccc(Oc2cccnc2)c1`, the %max stood at 1.6%. As for `Cc1nc(NC(=O)c2cc(F)cc(Oc3cncnc3)c2)sc1F`, the %max is 1.5%. On to `Cc1ccnc(NC(=O)c2cc(Cl)cc(Oc3cncnc3)c2)c1`, for which the %max was 1.7%. As for `O=C(Nc1cccc(C(F)F)n1)c1cc(Cl)cc(Oc2cncnc2)c1`, the %max was found to be 1.1%. For `CCc1cccc(NC(=O)c2cccc(Oc3cccnc3)c2)n1`, the %max amounted to 1.9%. In the case of `Cc1cc(NC(=O)c2cccc(Oc3cccnc3)c2)ccn1` it was 27.8%.

As for `CCc1ccnc(NC(=O)c2cc(Cl)cc(Oc3cncnc3)c2)c1`, the %max was 2%.

For `O=C(Nc1cccc(C(F)(F)F)n1)c1cc(F)cc(Oc2cncnc2)c1`, the %max came out at 3.7%.

For `O=C(Nc1cccc(CF)n1)c1cc(Cl)cc(Oc2cncnc2)c1`, the %max came to 1.4%. For the compound `O=C(Nc1ccc(Cl)cn1)c1cc(Cl)cc(Oc2cncnc2)c1`, the %max worked out at 1.3%. Consider `Cc1cc(Oc2cncnc2)cc(C(=O)Nc2ccc(F)cn2)c1`, for which the %max was 0.8%. Consider `Cc1cc(NC(=O)c2cc(Cl)cc(Oc3cncnc3)c2)ncc1F`, for which the %max came out at 10.2%. For the compound `COc1cccc(NC(=O)c2cccc(Oc3cccnc3)c2)n1`, the %max was 3.2%. Turning to `O=C(Nc1cc(Cl)ccn1)c1cc(Cl)cc(Oc2cncnc2)c1`, the %max was 1.2%. Turning to `O=C(Nc1nccs1)c1cc(F)cc(Oc2cncnc2)c1`, the %max was 3.2%. In the case of `O=C(Nc1cc(C(F)(F)F)ccn1)c1cc(Cl)cc(Oc2cncnc2)c1`, the %max was 2%. `Cc1cccc(NC(=O)c2cccc(Oc3cccnc3)c2)n1`: the %max amounted to 1.3%.

`O=C(Nc1nc(C(F)F)cs1)c1cc(F)cc(Oc2cncnc2)c1`: the %max is 1.7%. In the case of `O=C(Nc1cccc(C(F)F)n1)c1cc(F)cc(Oc2cncnc2)c1`, the %max came to 1.2%.

Take `Cc1nc(NC(=O)c2cc(Cl)cc(Oc3cncnc3)c2)sc1F`: the %max was determined as 1.4%.

With `O=C(Nc1nc(CF)cs1)c1cc(F)cc(Oc2cncnc2)c1`, the %max amounted to 1.6%. In the case of `O=C(Nc1ccccn1)c1cc(Cl)cc(Oc2cncnc2)c1` it was 1.2%; in that of `O=C(Nc1cccc(Oc2cccnc2)c1)c1cccc(Cl)c1`, 1%. The same measure for `Cc1cccc(NC(=O)c2cc(Cl)cc(Oc3cncnc3)c2)n1`: 1.1%; for `O=C(Nc1cccc(Cl)n1)c1cc(F)cc(Oc2cncnc2)c1`: 1.5%; for `O=C(Nc1ccc(F)cn1)c1cc(F)cc(Oc2cncnc2)c1`: 1.3%. Regarding `O=C(Nc1ccccn1)c1cc(F)cc(Oc2cncnc2)c1`, the %max came to 1.4%. In the case of `O=C(Nc1ccc(F)cn1)c1cccc(Oc2cccnc2)c1`, the %max turned out to be 6.8%.

`O=C(Nc1cccc(C(F)(F)F)n1)c1cc(Cl)cc(Oc2cncnc2)c1`: the %max was 1.5%. The same measure for `O=C(Nc1ccc(F)c(CF)n1)c1cc(Cl)cc(Oc2cncnc2)c1`: 1.2%; for `Cc1csc(NC(=O)c2cccc(Oc3cncnc3)c2)n1`: 1.7%. As to `O=C(Nc1ccc(Cl)cn1)c1cc(F)cc(Oc2cncnc2)c1`, the %max was 2%. In the case of `O=C(Nc1ccncn1)c1cccc(Oc2cccnc2)c1`, the %max came to 49.9%.

`Cc1nc(NC(=O)c2cc(Cl)cc(Oc3cncnc3)c2)ccc1F`: the %max was 1.1%.

Turning to `O=C(Nc1cccc(F)n1)c1cc(F)cc(Oc2cncnc2)c1`, the %max turned out to be 1.6%. Regarding `O=C(Nc1nc(C(F)(F)F)cs1)c1cc(Cl)cc(Oc2cncnc2)c1`, the %max was 1.2%. Consider `COc1cccc(NC(=O)c2cc(F)cc(Oc3cncnc3)c2)n1`, for which the %max worked out at 1.6%. As to `Cc1ccnc(NC(=O)c2cc(F)cc(Oc3cncnc3)c2)c1`, the %max was 1.4%. Take `O=C(Nc1ncccc1F)c1cc(Cl)cc(Oc2cncnc2)c1`: the %max stood at 52.6%. Consider `O=C(Nc1nc(C(F)F)cs1)c1cc(Cl)cc(Oc2cncnc2)c1`, for which the %max amounted to 1.2%.

The record behind these values is ChEMBL document CHEMBL2439973, “Discovery of VU0409106: A negative allosteric modulator of mGlu5 with activity in a mouse model of anxiety” (Bioorg Med Chem Lett, 2013).
